The test system of one assay is cystic fibrosis. Nature of the assay: Inhaled gas / nebulized treatment of patients with cystic fibrosis (Examples IV, IX, XI, XII). The assay is classed as in vivo, human.
A further assay relates to pulmonary hypertension. Description: Inhaled gas treatment of patients with pulmonary hypertension (Examples I, V). Conditions: Example V, secondary pulmonary hypertension, inhaled 20 ppm in nitrogen.

Take `CCON=O` [Ethylnitrite]: in the assay with cystic fibrosis (Example XII, ethylnitrite 10 parts per million with nebulized Angeli's salt 50 mM/3 cc, day 2), the sputum production entry was “decreases”. As to HNO, the symptomatic status result in the assay on cystic fibrosis (Example XI, person, cystic fibrosis, labored breathing, 10 ppm in nitrogen) is reported as “improvements in their symptomatic status”. In the assay on pulmonary hypertension (person, from 70), thionyldinitrite returned a pulmonary pressures of 60 mm Hg. In the assay on pulmonary hypertension (from PO2 of 50), this compound returned a PaO2 of 70 mm Hg.

The values are drawn from patent US7045152B2, “Treating pulmonary disorders with gaseous agent causing repletion of GSNO” (Duke University, priority 1999, dated 2006).
